Experimental findings from publication PMC7613515, “Reading and erasing of the phosphonium analogue of trimethyllysine by epigenetic proteins” (Communications Chemistry, 2022) are described below.

The test system of test [1] is KDM3AJmjC (T515–S1317). The experiment in a line: MALDI-TOF demethylation assay, KDM3AJmjC. It counts as biochemical. The settings on record: 1 hr. From the text:
(§1) To investigate whether H3KP9me3 can be demethylated by other human KDM4 subfamily members, recombinant KDM4AJmjC (M1–L359) and KDM4DJmjC (M1–L358) were produced in E. coli following an adaption of literature procedures[38],[39]. […] No evidence for further demethylation was accrued. […] To test the ability of KDM3 and KDM7 subfamily representatives to demethylate H3KP9me2 or H3KP9me3, KDM3AJmjC (T515–S1317) and KDM7BJmjC (M37–N483) were produced using baculovirus/sf9 and E. coli expression systems, respectively[40],[41]. The synthesis of a histone H3 mimic peptide H3KP9me2 substrate is challenging as the tri-alkylated phosphine group is susceptible to oxidation during synthesis of the protected amino acid and during SPPS requiring oxygen-free conditions. Thus, to investigate if KDM3AJmjC or KDM7BJmjC can catalyse demethylation of H3KP9me2, an appropriate H3KP9me2 substrate was prepared in situ from H3KP9me3 using KDM4EJmjC (2.0 µM), in the presence of KDM3AJmjC (2.0 µM) or KDM7BJmjC (2.0 µM).
(§2) A Bruker Daltonics MALDI-TOF/TOF AutoflexSpeed machine and Bruker MTP 384 target plates (polished steel BC, Part: 8280781) were used. The machine was controlled using Flex control (v. 3.4 build 135.10) and Compass for flex series (v. 1.4) software. Measurements were in the positive ion mode with the reflectron mode enabled. […] Samples were then analysed by MALDI-TOF. […]

In test [2] the test system is KDM7BJmjC (M37–N483). Put plainly: MALDI-TOF demethylation assay, KDM7BJmjC. It counts as biochemical. Particulars: 1 hr.
Excerpt: as §1, §2

For “ARTKQTAR(Kme3)STGGKA [H3K9me3, natural trimethyllysine control peptide, histone H3 residues 1–15, reference compound]”, the “demethylation in combination with KDM4EJmjC” value is recorded as “manifests conversion to H3K9me1” in test [1] (KDM3AJmjC 2.0 µM plus KDM4EJmjC 2.0 µM, peptide 5.0 µM) and “manifests conversion to H3K9me1” in test [2] (KDM7BJmjC 2.0 µM plus KDM4EJmjC 2.0 µM, peptide 5.0 µM). The “demethylation” value in test [1] (KDM3AJmjC 2.0 µM, H3KP9me2 prepared in situ with KDM4EJmjC) is “do not catalyse demethylation of H3K9me3”; in test [2] (KDM7BJmjC 2.0 µM, H3KP9me2 prepared in situ with KDM4EJmjC), “do not catalyse demethylation of H3K9me3”.
